In US6579881B2 (Eisai Co., Ltd., priority 1997, dated 2003):
Structures can show the parent of a compound that is named as a salt. Where two headings read alike, the source gives them in different places.

Test system: Straub's tail reaction (hyper-muscle tone in the tail)
Test: Morphine induced Straub's tail phenomenon in mice
Format: in vivo
Conditions: Mus musculus

With `COc1ccc2c(c1)C(N1CCN(CCc3ccc(F)cc3)CC1)CC2` (centres unmarked) [Example 250, 1-{4-[2-(4-fluorophenyl)ethyl]piperazin-1-yl}-6-methoxyindan Hydrochloride] the minimal effective dose (ip, read-out: minimal effective dose i.p.) was 10 mg/kg and the minimal effective dose (po, read-out: minimal effective dose p.o.) was 30 mg/kg.
